Data as given in patent US9808528B2, “Protein-polymer-drug conjugates and methods of using same” (priority 2014, dated 2017).

Test system: NCI-N87 cells
Experiment: Tumor growth response, NCI-N87 xenograft
Assay type: in vivo, mice
Details: single IV dose; Example 14 at […]; Example 16 at 3 mg/kg
Description: Mice were sacrificed when tumors reached a size of 800 to 1500 mm^3.

## Trastuzumab-((EG2-MI (2%)-(10 kDa PHF-BA (28%)-(AF-HPA-Ala (9%) [Example 14]
  tumor growth response (in words), FIG. 6: tumor growth delay response
